We go through 5 compounds from PubChem BioAssay AID1224905 (ICCB-Longwood Screening Facility, Harvard Medical School, 2016).

Protein sequences, listed by entry. Tags and fused reporters are not part of them.
UniProt P08753, whole entry, looked up: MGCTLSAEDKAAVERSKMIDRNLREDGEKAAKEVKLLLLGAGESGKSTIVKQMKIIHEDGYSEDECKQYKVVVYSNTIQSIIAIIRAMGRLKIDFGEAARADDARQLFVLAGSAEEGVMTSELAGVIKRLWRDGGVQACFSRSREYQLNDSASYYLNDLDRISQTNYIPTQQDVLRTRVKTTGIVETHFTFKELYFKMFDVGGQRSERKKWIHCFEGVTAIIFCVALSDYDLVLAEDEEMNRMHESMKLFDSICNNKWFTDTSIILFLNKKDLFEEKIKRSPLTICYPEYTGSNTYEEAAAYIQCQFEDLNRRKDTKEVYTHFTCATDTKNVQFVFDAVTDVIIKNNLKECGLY

Each structure is given as a SMILES string. Out of some 210,000 compounds screened, about 880 (0.42%) were called active.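 The calls were made as follows: active = replicate mean at 85% of control or lower with very high polarization wells dropped (limit read from the data); inactive = the rest.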 The sample as a whole holds a higher share of actives than the screen did.

The target in the experiment is Guanine nucleotide-binding protein G(i) subunit alpha-3 (Rattus norvegicus) (UniProt P08753). The experiment in a line: inhibitors of GIV peptide binding to Galpha-i3, primary screen, biochemical, fluorescence polarization, FITC-GIV GBA peptide, rat Galphai3 (AID 1224905).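 Also: lower values mean more displacement of the GIV peptide from Galpha-i3.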 To be noted: 90 min, hits give low values. Background: Polarisation of emitted light reports the rotation of a fluorescent probe.
Regarding `CN1CCc2c(c(S)[nH]c(=S)c2C#N)C1`, the percent of control (FP) is 35% (active).
On to `O=C(NCCN1CCOCC1)c1cc2cccnc2n(Cc2ccccc2)c1=O`, for which the percent of control (FP) was 108% [scaled: aluminum fluoride 0%, vehicle 100%] (inactive).
Then `CCOC(=O)C1CC2CCCN2C12C(=O)N(Cc1ccccc1)c1ccccc12` (stereo not given), with 101% (inactive); and `O=c1c2ccccc2nc(COc2ccc(Cl)cc2)n1-c1ccc(Br)cn1`, with 98.1% (inactive); and `Cc1nc2nc(-c3ccc(C(C)(C)C)cc3)nn2c(C)c1CC(=O)N1CCN(CCO)CC1`, with 102% [scaled: aluminum fluoride 0%, vehicle 100%] (inactive).
